# Assay results: patent US20110275102A1 (Novartis, published 2011)
# T1: full-length human RACα produced in the baculovirus system (Sf9 cells) (human, UniProt P31749 1-480)
# T1 construct: also called full-length RAC-PK molecule; baculovirus produced human RACα
# T1 sequence: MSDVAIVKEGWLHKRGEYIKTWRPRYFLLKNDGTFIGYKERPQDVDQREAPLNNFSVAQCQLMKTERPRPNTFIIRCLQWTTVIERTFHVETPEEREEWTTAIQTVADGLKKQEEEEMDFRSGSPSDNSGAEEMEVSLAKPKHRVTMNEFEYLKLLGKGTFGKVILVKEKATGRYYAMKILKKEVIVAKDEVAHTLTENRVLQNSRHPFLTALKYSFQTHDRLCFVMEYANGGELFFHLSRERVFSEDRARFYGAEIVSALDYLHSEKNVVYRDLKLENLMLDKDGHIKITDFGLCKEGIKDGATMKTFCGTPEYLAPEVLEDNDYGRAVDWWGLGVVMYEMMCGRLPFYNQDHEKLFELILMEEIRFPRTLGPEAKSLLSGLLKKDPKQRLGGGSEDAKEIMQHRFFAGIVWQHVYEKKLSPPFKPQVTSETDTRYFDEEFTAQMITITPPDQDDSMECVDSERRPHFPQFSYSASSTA
# B1: GST (from pGEX-2T) (other, UniProt P08515 1-218, looked up)
# chain: MSPILGYWKIKGLVQPTRLLLEYLEEKYEEHLYERDEGDKWRNKKFELGLEFPNLPYYIDGDVKLTQSMAIIRYIADKHNMLGGCPKERAEISMLEGAVLDIRYGVSRIAYSKDFETLKVDFLSKLPEMLKMFEDRLCHKTYLNGDHVTHPDFMLYDALDVVLYMDPMCLDAFPKLVCFKKRIEAIPQIDKYLKSSKYIAWPLQGWQATFGGGDHPPK
# notes: Control protein; also called GST alone
# Target: T1, full-length human RACα produced in the …
# Test: in vitro binding to GST fusions on glutathione-agarose beads, Western blot with RACα antiserum
binder,measurement,value
B1,binding result,no binding (tested: 2.5 µg of each in 100 µL)
